Assay results from patent US20230203081A1, “LINCOSAMIDE ANTIBIOTICS AND USES THEREOF” (President and Fellows of Harvard College, priority 2020, published 2023).
Values after ≈ are worked out from the molar mass of the structure shown. Like-named read-outs stand apart in the source and are kept apart here.

Key:
S. aureus MMX 3035 cErmA = assay: MIC (broth microdilution or agar dilution, CLSI); assay type: cell-based; settings: Staphylococcus aureus, MMX3035CERMA, S. aureus HAV#031, MMX 3035
[1] = test system: S. pneumoniae MMX 3028 cErmB; assay: MIC (broth microdilution or agar dilution, CLSI); assay type: cell-based; settings: Streptococcus pneumoniae, MMX3028CERMB, S. pneumoniae HAV#033
[2] = test system: S. pyogenes MMX 946; cErmB; assay: MIC (broth microdilution or agar dilution, CLSI); assay type: cell-based; settings: Streptococcus pyogenes, S. pyogenes HAV#035, MMX 946, mac-resistant
[3] = test system: E. faecalis MMX 847; cErmB; assay: MIC (broth microdilution or agar dilution, CLSI); assay type: cell-based; settings: Enterococcus faecalis, E. faecalis HAV#036, MMX 847, mac-resistant
[4] = test system: broad panel of different clinical isolates; assay: microbe, parasite or virus in culture; assay type: cell-based
S. pyogenes ATCC 19615 = assay type: in vivo
Method: Mouse systemic infection study: S. pyogenes ATCC 19615 was cultured overnight on blood agar plates in 5% CO2 at 35° C. before being suspended in BHIB. The optical density of the bacterial suspension was adjusted to 0.1 at 600 nm using sterile BHIB and was then further diluted 1:1 in 10% hog gastric mucin (HGM, type III) to prepare the infecting inoculum in 5% HGM. Mice were infected by intraperitoneal injection of 250 μL, infecting inoculum, representing 1-2×10^6 CFU per animal. At time points 1, 5, 17, and 29 h post-infection, animals were administered intravenous infusions of FSA-513018b (1, 3, or 10 mg/kg, 250 μL in 10% Captisol; […]; 8 mice per dose level), or vehicle as negative control (10% Captisol, 250 μL; 10 mice). Animals were monitored for survival for seven days following infection.

**Q.** For `CCC[C@@H]1C[C@@H](C(=O)N[C@@H]([C@H]2O[C@H](SC)[C@H](O)[C@@H](O)[C@H]2O)[C@H](C)Cl)N(C)C1` [Clindamycin, clindamycin, reference compound], which MIC (S. aureus MMX 3035 cErmA) is on record?
**A.** > 256 µg/mL

**Q.** What about the MIC [1] of the same molecule?
**A.** 256 µg/mL (≈ 602 µM)

**Q.** And the MIC [2]?
**A.** > 256 µg/mL

**Q.** And the MIC [3]?
**A.** > 256 µg/mL

**Q.** And the MIC ([4]; Enterococcus faecalis, E. faecalis HAV#607, Clinical)?
**A.** > 256 µg/mL

**Q.** And the MIC ([4]; Enterococcus faecalis, E. faecalis HAV#608, Clinical)?
**A.** > 256 µg/mL

**Q.** What about the MIC ([4]; Enterococcus faecalis, E. faecalis HAV#609, Clinical) of the same molecule?
**A.** > 256 µg/mL

**Q.** What about the MIC ([4]; Enterococcus faecalis, E. faecalis HAV#610, Clinical) of the same molecule?
**A.** > 256 µg/mL

**Q.** And the MIC ([4]; Enterococcus faecalis, VRE, E. faecalis HAV#606, Clinical)?
**A.** > 256 µg/mL

**Q.** And the MIC ([4]; Enterococcus faecium, E. faecium HAV#324, Clinical)?
**A.** > 256 µg/mL

**Q.** And the MIC ([4]; Enterococcus faecium, E. faecium HAV#328, Clinical)?
**A.** > 256 µg/mL

**Q.** What about the MIC ([4]; Enterococcus faecium, E. faecium HAV#329, Clinical) of the same molecule?
**A.** > 256 µg/mL

**Q.** What about the MIC ([4]; Klebsiella pneumoniae, K. pneumoniae HAV#041, Clinical, KPC) of the same molecule?
**A.** 256 µg/mL (≈ 602 µM)

**Q.** And the MIC ([4]; Staphylococcus aureus, S. aureus HAV#054, mecA, norA, spcl, aad1, fosB, ermA, aac6′-aph2″, blaZ)?
**A.** > 256 µg/mL

**Q.** What about the Mice surviving (S. pyogenes ATCC 19615; 1 mg/kg i.v., Day 1, n=8, clindamycin given as clindamycin phosphate) of the same molecule?
**A.** 8

**Q.** What about the Mice surviving (S. pyogenes ATCC 19615; 1 mg/kg i.v., Day 2, n=8) of the same molecule?
**A.** 8

**Q.** What about the Mice surviving (S. pyogenes ATCC 19615; 1 mg/kg i.v., Day 3, n=8) of the same molecule?
**A.** 8

**Q.** What about the Mice surviving (S. pyogenes ATCC 19615; 1 mg/kg i.v., Day 4, n=8) of the same molecule?
**A.** 8

**Q.** And the Mice surviving (S. pyogenes ATCC 19615; 1 mg/kg i.v., Day 5, n=8)?
**A.** 8

**Q.** What about the Mice surviving (S. pyogenes ATCC 19615; 1 mg/kg i.v., Day 6, n=8) of the same molecule?
**A.** 8

**Q.** And the Mice surviving (S. pyogenes ATCC 19615; 1 mg/kg i.v., Day 7, n=8)?
**A.** 8

**Q.** What about the Mice surviving (S. pyogenes ATCC 19615; 3 mg/kg i.v., Day 1, n=8) of the same molecule?
**A.** 8

**Q.** And the Mice surviving (S. pyogenes ATCC 19615; 3 mg/kg i.v., Day 2, n=8)?
**A.** 8

**Q.** What about the Mice surviving (S. pyogenes ATCC 19615; 3 mg/kg i.v., Day 3, n=8) of the same molecule?
**A.** 8

**Q.** And the Mice surviving (S. pyogenes ATCC 19615; 3 mg/kg i.v., Day 4, n=8)?
**A.** 8

**Q.** And the Mice surviving (S. pyogenes ATCC 19615; 3 mg/kg i.v., Day 5, n=8)?
**A.** 8

**Q.** What about the Mice surviving (S. pyogenes ATCC 19615; 3 mg/kg i.v., Day 6, n=8) of the same molecule?
**A.** 8

**Q.** And the Mice surviving (S. pyogenes ATCC 19615; 3 mg/kg i.v., Day 7, n=8)?
**A.** 8

**Q.** And the Mice surviving (S. pyogenes ATCC 19615; 10 mg/kg i.v., Day 1, n=8)?
**A.** 8

**Q.** What about the Mice surviving (S. pyogenes ATCC 19615; 10 mg/kg i.v., Day 2, n=8) of the same molecule?
**A.** 7

**Q.** What about the Mice surviving (S. pyogenes ATCC 19615; 10 mg/kg i.v., Day 3, n=8) of the same molecule?
**A.** 7

**Q.** And the Mice surviving (S. pyogenes ATCC 19615; 10 mg/kg i.v., Day 4, n=8)?
**A.** 7

**Q.** What about the Mice surviving (S. pyogenes ATCC 19615; 10 mg/kg i.v., Day 5, n=8) of the same molecule?
**A.** 7

**Q.** And the Mice surviving (S. pyogenes ATCC 19615; 10 mg/kg i.v., Day 6, n=8)?
**A.** 7

**Q.** And the Mice surviving (S. pyogenes ATCC 19615; 10 mg/kg i.v., Day 7, n=8)?
**A.** 7
